The source of these data is patent US8084596B2, “Regulated apoptosis” (The Board of Trustees of the Leland Stanford Junior …, priority 1993, dated 2011).

The target of the assay is MC3FE (murine; human) (UniProt P30412). The assay is described as follows: cell-based or functional assay.

In turn, (CsA)2 (peptide) showed an LD50 for (CsA)2-mediated cell death of 200 nM.
